# Experimental data from ChEMBL document CHEMBL1154105, “Optimization of peptide-based inhibitors of prostate-specific antigen (PSA) as targeted imaging agents for prostate cancer” (Bioorg Med Chem, 2009).
# Tests used:
# [1] = target: T1, Prostate-specific antigen (Homo sapiens, UniProt P07288); test: biochemical; assay type: tissue-based, Prostate gland;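 further: Fluorescence-based readout of substrate cleavage by prostate-specific antigen, used to gauge enzyme inhibition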
# T1 sequence (P07288 whole entry): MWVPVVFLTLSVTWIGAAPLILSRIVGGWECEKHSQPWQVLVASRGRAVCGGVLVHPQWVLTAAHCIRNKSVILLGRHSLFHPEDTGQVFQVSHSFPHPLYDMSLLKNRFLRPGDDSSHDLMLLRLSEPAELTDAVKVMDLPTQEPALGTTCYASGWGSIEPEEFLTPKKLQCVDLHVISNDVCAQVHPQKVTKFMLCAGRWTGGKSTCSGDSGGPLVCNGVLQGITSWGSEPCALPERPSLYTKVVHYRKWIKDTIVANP
# [2] = Inhibition of chymotrypsin
# [3] = Selectivity ratio of Ki for chymotrypsin to Ki for prostate-specific antigen; conditions: Prostate gland
SMILES,Ki [1],Ki [2],Ratio Ki [3]
CC(C)C[C@H](NC(=O)[C@H](CC(C)C)NC(=O)[C@H](CCCCN)N(C)C(=O)[C@H](CO)NC(=O)[C@H](CO)N(C)C(=O)OCc1ccccc1)B(O)O,5.6 µM,–,–
CC(C)C[C@H](NC(=O)[C@H](CCC(N)=O)NC(=O)[C@H](CO)NC(=O)[C@H](CO)NC(=O)OCc1ccccc1)B(O)O,–,211 nM,8
CC(C)C[C@H](NC(=O)[C@H](CC(C)C)NC(=O)[C@H](CCCCN)NC(=O)[C@H](CO)NC(=O)[C@H](CO)NC(=O)OCc1ccccc1)B(O)O,65 µM,–,–

# Results, then the compound that gave them:
Ki [1],Ki [2],Ratio Ki [3],SMILES
13.1 µM,–,–,CC(C)C[C@@H](C=O)NC(=O)[C@H](Cc1ccc(O)cc1)NC(=O)[C@H](CCCCN)NC(=O)[C@H](CO)NC(=O)[C@H](CO)NC(=O)OCc1ccccc1
19.9 µM,–,–,CC(C)C[C@H](NC(=O)[C@H](CC(C)C)NC(=O)[C@H](CCCCN)NC(=O)[C@H](CO)N(C)C(=O)[C@H](CO)NC(=O)OCc1ccccc1)B(O)O
2.5 µM,–,–,CC(C)C[C@H](NC(=O)[C@H](CC(C)C)NC(=O)[C@H](CCCCN)N(C)C(=O)[C@H](CO)NC(=O)[C@H](CO)NC(=O)OCc1ccccc1)B(O)O
